This passage reports stoichiometry N results from article PMC5056442.

This test deals with BamE (E. coli) (UniProt P0A937). Description: SEC + native MS; purified BamABCDE; SDS-PAGE, gel filtration (Superdex200 10/300 GL, TBS with 0.05% DDM, 21 °C) and non-covalent nanoESI-MS named together for the molar ratio. In general terms: In gel filtration, larger molecules generally elute earlier.

For orientation: stoichiometry N means the number of molecules, sites or subunits per partner or assembly. As to “BamA (from UniProt P0A940 21-810) (natural protein; other documents disagree on this pair)”, the stoichiometry N was 1 molar ratio.
